Earlier results on 1 compound are cited in patent US10227335B2.

Some compounds may have been tested in ways that are not shown here.

Consider `CCC(=O)N(c1ccccc1)C1(COC)CCN(CCc2cccs2)CC1`, for which the terminal half-life result (compared with alfentanil and fentanyl) was “intermediate between alfentanil and fentanyl”. For the setting “compared with fentanyl”, the volume of distribution entry is “smaller”.
